We go through one substance from patent US12419961B2, “Docetaxel-aconitic anhydride conjugate exhibiting anti-tumor activity without in vivo toxicity” (CNPharm Co., Ltd., priority 2021, dated 2025).

Data set [1] relates to L929. As to the kind of experiment: cell viability assay on L929 normal cell line. The class given is cell-based. The conditions noted are these: FIG. 5B; normal mouse fibroblast cell line.
The nature of data set [2]: weight monitoring in mouse xenograft model. The note with it: FIG. 6B, PANC-1 model, dose: docetaxel standard, 20 mg/kg. The format is in vivo, BALB/c mice. As for the experimental part: FIGS. 6A and 6B show the anticancer efficacy result of the A3Tx in the animal experiment (i.e., the mouse xenograft model) in accordance with one implementation of the present disclosure. […] Normally, non-treated group is injected with saline (NaCl solution) in anti-cancer efficacy study.

Entries after “also recorded” stand apart in the source; their conditions may differ.

For “docetaxel-aconitic anhydride conjugate [A3Tx]”, the “cytotoxicity toward normal cell line L929” value in data set [1] is “lower cytotoxicity; also recorded: low cytotoxicity”. Moreover, the body weight loss result in data set [2] is reported as “no weight loss was observed; also recorded: no significant loss of body weight”.
